# Results reported in patent publication US7915270B2, “Oxazole ketones as modulators of fatty acid amide hydrolase” (The Scripps Research Institute, priority 2006, dated 2011).
# Protein sequences, listed by entry. Tags and fused reporters are not part of them.
# UniProt O00519, whole entry: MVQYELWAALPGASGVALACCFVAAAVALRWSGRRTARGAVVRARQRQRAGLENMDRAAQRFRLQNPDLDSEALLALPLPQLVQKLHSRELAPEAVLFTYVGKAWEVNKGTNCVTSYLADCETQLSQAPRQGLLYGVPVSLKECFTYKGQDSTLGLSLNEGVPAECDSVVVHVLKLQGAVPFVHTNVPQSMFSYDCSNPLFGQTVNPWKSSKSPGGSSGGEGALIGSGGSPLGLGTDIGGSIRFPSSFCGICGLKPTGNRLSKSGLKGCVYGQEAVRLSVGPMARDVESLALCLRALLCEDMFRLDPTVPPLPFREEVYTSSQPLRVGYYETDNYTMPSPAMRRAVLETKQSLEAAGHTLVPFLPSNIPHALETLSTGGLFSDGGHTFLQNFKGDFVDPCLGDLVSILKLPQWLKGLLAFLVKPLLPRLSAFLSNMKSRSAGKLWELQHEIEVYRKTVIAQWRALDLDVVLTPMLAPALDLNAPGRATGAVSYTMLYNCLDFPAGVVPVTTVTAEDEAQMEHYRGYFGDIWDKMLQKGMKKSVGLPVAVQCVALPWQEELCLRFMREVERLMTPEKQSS
# UniProt P97612, whole entry: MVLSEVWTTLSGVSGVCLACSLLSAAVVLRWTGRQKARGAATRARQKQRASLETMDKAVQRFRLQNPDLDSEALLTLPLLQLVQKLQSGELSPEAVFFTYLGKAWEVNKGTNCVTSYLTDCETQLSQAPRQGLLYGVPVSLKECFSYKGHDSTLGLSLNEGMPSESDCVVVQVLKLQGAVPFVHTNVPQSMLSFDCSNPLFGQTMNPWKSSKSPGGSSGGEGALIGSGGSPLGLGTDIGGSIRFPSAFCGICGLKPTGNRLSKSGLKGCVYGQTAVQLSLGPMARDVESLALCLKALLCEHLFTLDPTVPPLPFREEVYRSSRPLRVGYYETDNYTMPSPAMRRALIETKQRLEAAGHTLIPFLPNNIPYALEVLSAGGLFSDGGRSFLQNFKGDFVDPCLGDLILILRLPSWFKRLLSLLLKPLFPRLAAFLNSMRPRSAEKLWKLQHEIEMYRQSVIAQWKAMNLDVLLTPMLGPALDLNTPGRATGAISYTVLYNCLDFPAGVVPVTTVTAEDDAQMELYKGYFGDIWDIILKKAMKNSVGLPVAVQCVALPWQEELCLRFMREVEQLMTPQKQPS
# How the values were obtained:
# FAAH [1] = target: FAAH (Homo sapiens, UniProt O00519); experiment: Assay Method 1B: FAAH assay, 3H-anandamide hydrolysis in cell homogenate (T84 or SK-N-MC cells transfected with human FAAH); type: biochemical; design: expressed in transfected cells; conditions: 3H-AEA 80 nM, rt 1 h, pH 9
# Experimental: (§1) Transfection of Cells with Human FAAH A 10-cm tissue culture dish with a confluent monolayer of SK—N-MC cells was split 2 days (d) prior to transfection. Using sterile technique, the media was removed and the cells were detached from the dish by the addition of trypsin. One fifth of the cells were then placed onto a new 10-cm dish. Cells were grown in a 37° C. incubator with 5% CO2 in Minimal Essential Media Eagle with 10% Fetal Bovine Serum. After 2 d, cells were approximately 80% confluent. These cells were removed from the dish with trypsin and pelleted in a clinical centrifuge. The pellet was re-suspended in 400 μL complete media and transferred to an electroporation cuvette with a 0.4 cm gap between the electrodes. Supercoiled human FAAH cDNA (1 μg) was added to the cells and mixed. The voltage for the electroporation was set at 0.25 kV, and the capacitance was set at 960 μF. After electroporation, the cells were diluted into complete media (10 mL) and plated onto four 10-cm dishes. Because of the variability in the efficiency of electroporation, four different concentrations of cells were plated. The ratios used were 1:20, 1:10, and 1:5, with the remainder of the cells being added to the fourth dish. The cells were allowed to recover for 24 h before adding the selection media (complete media with 600 μg/mL G418). After 10 d, dishes were analyzed for surviving colonies of cells. […]
# Rat FAAH = target: T1, Rat FAAH (Rattus norvegicus, UniProt P97612); experiment: Assay Method 2: FAAH assay, 3H-anandamide hydrolysis in cell homogenate (SK-N-MC cells transfected with rat FAAH); type: biochemical; conditions: 3H-AEA 80 nM, rt 1 h, pH 9
# T1 construct: expressed in transfected cells
# Experimental: A. Transfection of Cells with Rat FAAH
# as §1, with “A” for “Transfection of Cells with Human FAAH A”, “rat” for “human”
# FAAH [2] = target: FAAH (Rattus norvegicus, UniProt P97612); experiment: Assay Method 1A: FAAH enzyme assay, 14C-oleamide hydrolysis, solubilized liver plasma membrane extract; conditions: read-out: Assay 1A Ki, liver plasma membrane extract containing FAAH, pH 9.0, 20-23 °C, Dixon method;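 further: ki obtained by Dixon analysis, taking the x-intercept of inhibitor concentration versus reciprocal rate plots at fixed substrate level and correcting for substrate concentration relative to Km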
compound,measurement,setting,value
"COC(=O)c1cccc(-c2cnc(C(=O)CCCCCCc3ccccc3)o2)n1 [Example 33, Methyl 6-(2-(7-phenylheptanoyl)oxazol-5-yl)picolinate]",IC50,FAAH [1],6 nM
same,IC50,Rat FAAH,70 nM
same,Ki,FAAH [2],8 nM
